Measured values from patent US20090325888A1, “Peptides having a health benefit and compositions comprising them” (priority 2005, published 2009).
Entries after “also recorded” stand apart in the source; their conditions may differ.

Tests used:
[1] = simulated in-vitro gastrointestinal digestion of protein hydrolysate (PH); type: in vitro ADME; conditions: peptide within PH, artificial GIT
Text: Milk proteins and milk protein hydrolysates are commonly known as precursors of a large range of ACE inhibitory peptides. After consumption, the proteins and peptides are subjected to various digestive enzymatic processes in the human gastrointestinal tract, which results in the release of in-vivo ACE inhibitory peptides. In order to assess the break-down of the identified bioactive peptides and the formation of novel active peptides after human consumption, PH was processed by an artificial gastro-intestinal tract, which simulated conditions typically found in the human body. At certain times samples were taken from the GIT model system. These were also analysed using the on-line HPLC-Bioassay-MS or HRS-MS system.
Digestion of protein hydrolysate (hereafter PH) a hydrolyzed casein protein isolate obtained from DSM (Delft, The Netherlands). The protein hydrolysate (PH) was prepared by incubation of 10 wt % potassium caseinate with overproduced and essentially pure endoprotease from Aspergillus niger as described in WO 02/45524.
The digestion procedure was performed using a dissolution model (Vankel) with a 100 ml flask. […]
The samples were transferred into a beaker and were heated in a microwave till boiling. […] The total N concentration was determined and converted to protein level using the Kjeldahl factor of casein (6.38). […]

[2] = simulated in-vitro gastro-intestinal digestion of synthetic MAP and ITP (micro-dissolution); type: in vitro ADME; conditions: synthetic peptide
Text: For the dissolution the following solutions were used: […]

Row | SMILES | stability in the gastro-intestinal tract [1] | stability under gastro-intestinal conditions [2]
1 | CC[C@H](C)[C@H](N)C(=O)N[C@H](C(=O)N1CCC[C@H]1C(=O)O)[C@@H](C)O [ITP, Ile-Thr-Pro] | stable in the human intestinal tract; also recorded: high resistance against GIT digestion | excellent stability under gastrointestinal conditions
2 | CSCC[C@H](N)C(=O)N[C@@H](C)C(=O)N1CCC[C@H]1C(=O)O [MAP, Met-Ala-Pro] | stable in the human intestinal tract; also recorded: high resistance against GIT digestion | 
